## Antibody variant affinities, Ab-14 light chain, assay B

From the AlphaSeq antibody data of Li et al. 2023 (doi:10.1038/s41467-023-39022-2), copy in the FLAb collection.

Target: peptide PDVDLGDISGINAS, taken from heptad repeat 2 (HR2) of SARS-CoV-2 spike.

Parent: Ab-14, a human scFv built as VH, three GGGGS repeats, VL. Only the CDRs of the light chain vary.
VH: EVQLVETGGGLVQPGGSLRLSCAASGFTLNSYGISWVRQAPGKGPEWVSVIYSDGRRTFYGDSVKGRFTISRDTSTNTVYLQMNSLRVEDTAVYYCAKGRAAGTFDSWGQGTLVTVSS
VL: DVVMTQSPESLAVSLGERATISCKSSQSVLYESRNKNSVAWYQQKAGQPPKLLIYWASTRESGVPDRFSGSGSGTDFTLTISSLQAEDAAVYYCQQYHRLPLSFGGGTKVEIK

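Phage display of a naive human antibody library on the peptide gave the parent. These sequences belong to a second round, designed from the earlier measurements on random variants of the parent. Several design methods are mixed in this list. AlphaSeq pools MATa yeast showing the antibodies with MATalpha yeast showing the peptide. Binding brings cells together so that they mate, and sequencing counts the barcode pairs among the diploids. Each replicate has its own calibration line, from reference interactions of the BCL2 family. Each pool was mated in six replicate cultures.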

Each variant is given by its three light chain CDRs, as the data file delimits them; those of the parent are KSSQSVLYESRNKNSVA, WASTRES, QQYHRLPLS. Affinities are written as log10 Kd with Kd in nM; a lower number is a better binder. A mean of the replicates is given; it leaves out those without a signal. Where no diploid with the target was found in any replicate, the entry reads "no signal": below detection, most likely a poor binder, though not proof of it. The range of this assay differs from that of the first round, and the authors advise against merging the two. Nonspecific signal, from three strains lacking the peptide, appeared in 4% of pairings of all light chain designs, centred on 2.64 (5% of these signals below 1.59); values are not corrected for it. In the paper, a design with two or fewer of six values counts as a poor binder. The parent sequence was in this pool as ten entries: three were never detected, three once, and four in most replicates, with averages from 0.34 to 2.37.

"mean, log10 nM",detected,CDR-L1,CDR-L2,CDR-L3
-0.54,6/6,KLRMSQLYESRNKNSVA,NASTRES,QQYHRLPLS
0.33,6/6,HMMMYSEMQNNIQNNIA,DAMTRVT,QQYQHLPLS
0.77,6/6,AIQQHRLGTEQYLNAIA,NAQVRED,QQYMQLPLI
-0.57,6/6,KQSPQDLYQSRMKNQVA,DASTRES,QQYHRLPLS
0.36,6/6,KSSQAYLYESRNKNSVA,GASTRES,QQYHRLPLS
0.71,6/6,QLGDNQVGETLMQDAIA,HDAFRAD,QQYFRLPLL
0.67,6/6,KSYQSSWYESRNKNSVA,NASLRCS,QQYHRLPLS
1.55,2/6,KLSQSVLYESRNKNSVA,DASTRES,YQYHRLPIS
0.67,6/6,KYYPSYLYESRNKNSVA,QASTRES,QQYHLLPLS
4.35,2/6,KSSQSVLHEMFNKNSVA,HASTRES,QQYPRLPLS
1.59,6/6,KVEEEGDVFARNDNSVA,EMSMVLD,QQYHRLPLA
0.26,6/6,KSSGSQQYEDRNKNSVA,SASQRES,QQYHRLPLS
-0.43,6/6,KVSPSQLYESRNKNSVA,NASTRES,QQYHRLPLS
-0.33,6/6,KLSQSDEYQSRNKNSVA,NASTRYS,QQYHRLPLS
0.97,6/6,MVNGIMDHLSKNMNNVA,ETTTRNS,QQYDRLPLV
0.93,6/6,KISQMIRVGSTHSNSIA,EEQTRAK,QQYHRLPLA
-0.26,6/6,KFSQEVLYESRTKNSVA,NASTRES,QQYHRLPLS
0.85,6/6,QFESLEEEGYAYSNNIA,GGEQRFS,QQYVKLPLV
1.29,6/6,HILQNMTYYSRNINSVA,HQSTRED,QQYHSLPLS
-0.43,6/6,KLDQSVLYESRNKNSVA,NASTRLS,QQYHRLPLS
1.44,1/6,KSSQSVLYESRNKNSVA,WASTRES,QQYHRTPNS
1.94,6/6,KIQNMAWSGSMKWNAVA,ASEHKVG,QQYGRLPFT
1.14,6/6,QISVFELQGTGWAQNIA,QASHRTE,QQFSRLPLV
0.72,6/6,TISESWMYESRNKNNVA,EESTKLD,QSYFRLPLS
-0.14,6/6,KLSQSDLYESRNKNSVA,EASYRES,QQYHRLPLS
2.13,6/6,SIAGTLHFNQSGGSNVA,EVQMREQ,QQYFRLPLG
1.78,1/6,KSNQSVLYESRNKNSVA,WASTRES,QQYSRLPLS
0.53,6/6,TISQMTSLFSQTINNVA,EVSMREP,QQYDRLPLM
0.50,6/6,KIGATLNQLMKKKNNVA,DLVEREN,QQYFRLPLS
0.96,6/6,RVQLNSGHIDMHWYNIA,SASIRAD,QQYFRLPIF
1.61,5/6,KVSQSVLFESRNDNSIA,WASTRES,QAYHRLPLS
1.18,1/6,KLVQSTLYESRQKNSVA,WASTRES,QQYHRLPLS
0.70,6/6,KLQSLEQYESRWKNNVA,SASTRSS,QQYHRLPLS
1.92,1/6,KSQQSDLYESTNPNSVA,WASTRES,QQYHRLPLI
0.83,6/6,KSELSVLYESRNKNQVA,QASTRES,QQYHRLPLS
no signal,0/6,KSSQSVLYESRNKNSVA,WASTRES,QQHHRLPLS
0.57,6/6,KLASVTGTEKVRGNNVA,EMETREQ,QQYNRLPLS
1.35,6/6,KLMEQFGHSMDHKNNIA,HVDMLAQ,QQYMHLPLI
2.08,5/6,KSSQSVLYPSRNKNSVA,WADTRLS,QQYHRLPIS
0.31,6/6,HVEHAWLLSNATMNAVA,NGATLAD,QQYGRLPLA
0.27,6/6,QINLQGLSAALNNRAVA,AKNLRVA,QQYNRLPLS
1.77,6/6,KISFLDYRGSQWHNNIA,EGSQRAE,QQYSRLPLN
0.31,6/6,KVSQSYLGESRNMNSVA,NASTRED,QQYHRLPLS
-0.50,6/6,KLSQSVLYESRNKNNVA,GASTRES,QDYHRLPLS
1.06,6/6,KSSISTLYESRMKNSVA,EASTRES,QQYHRLPLS
2.20,6/6,SFPSEMDQQQFQVNSIA,GEQHTAR,QQYGRLPLS
0.38,6/6,KIGMTLNTLMHTKNNVA,DLVMREK,QQYHRLPLS
1.85,3/6,KLSMSVRMESFVKDNVA,ENSTREA,QDYHRLPLS
0.53,6/6,KISQMVRVGSTHSNSIA,EEATRSD,QQYHRLPLS
0.37,6/6,KVDQWEPYGSRNKNSVA,SASTRCS,QQYHRLPLS
0.46,6/6,KVQPSELGESRHDNSVA,NASKRES,QQYHRLPLS
0.60,6/6,MLSEMLHMLGAKKNSIA,DLVMRAN,QQYHRLPLF
-0.05,6/6,KFSQQVLYESRQKNSVA,NASQRFE,QQYHRLPLS
0.18,6/6,KNDPSHLGESRNKNAVA,QASTREE,QQYHRLPLS
no signal,0/6,RLSALSGIQEVNRNSVA,QNSTREQ,QQYDRLPLS
0.94,6/6,KSGQGVLYESRNKNSVA,GASTRES,MLYHRLPLS
-0.07,6/6,RLTEHQYMRAYANHAVA,DASTRND,QQYHRLPLE
0.10,6/6,KFSQSVLYESRNKNSVA,SASTRES,GQYHRLPLS
no signal,0/6,KSSQSVLYESRNANMVA,WASTRES,QQYHRFPLS
2.58,6/6,TIGHTLMQGVRNSSNVA,EVSQRLN,QQYDRLPLI
0.28,6/6,ALQMERLGQKQWQNNIA,NQDIRTA,QQYYMLPLV
no signal,0/6,KSSQSFLYESRIKNSVA,GASTRES,QQYHNLTLS
0.15,6/6,KLWQSVLYESRNKNSVA,GASTRES,QQYHRLPLS
0.55,6/6,KVVQSHDYEQRNKNSVA,HASTRCS,QDYHRLPLS
no signal,0/6,KSSQEVLYESLNKNSVA,YASTRES,QQYHRQPLM
1.63,3/6,KLSQVTHSEMKVKNSIA,EMVTREK,QQYDRLPLS
-0.18,6/6,KFSQSVLYESRNFNSVA,NASTRES,QQYHRLPLS
1.91,2/6,KSSQSVLYESRNPNSVA,WASTREV,QHYHRLPLS
2.24,4/6,TITGMVEEIETRQKNIA,EVEFRCM,QQYSRLPLS
1.54,6/6,KSSQSFLYESRNKNSVA,WASTRES,QQYHRLPLS
-0.18,6/6,KISQSFLYESRNVNSVA,GASTRDS,QQYHRLPLS
1.09,6/6,KFQIGPNQGHSMEHNIA,EGTYAEE,QQYARLPLQ
0.20,6/6,TVSQVHGMLQHNKNSVA,DMNTRGS,QQYDRLPLS
no signal,0/6,TISNSFMMENQFRNSVA,QASTRLN,QCYDRLPLS
0.30,6/6,TITQSMLMTSHNMNSVA,HASTREE,QQYHRLPLI
1.66,6/6,KSSQSVLDDSDNKNSVA,WASTRES,QQYHRLPLS